## Apparent affinities of Ab-14 variants for a coronavirus HR2 peptide

The measurements come from Li et al. 2023 (doi:10.1038/s41467-023-39022-2) through the FLAb antibody collection.

Binding partner: SARS-CoV-2 spike HR2 peptide, sequence PDVDLGDISGINAS.

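Phage display of a naive human antibody library on the peptide gave the parent. The variants were designed computationally from a first round of random CDR variants and then made and measured. Their group label is 14H_GPLM_Gen (GPLM: also part of the Gaussian process libraries; Gen: genetic algorithm; a sequence that several methods proposed may carry one label only). The assay is AlphaSeq: two haploid yeast populations carry antibody and antigen on their surface. Pairs that bind mate more often; barcode pairs of the diploids are counted by sequencing. Each replicate has its own calibration line, from reference interactions of the BCL2 family. The assay was run in six technical replicates.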

Parent scFv Ab-14: VH joined to VL by the linker GGGGSGGGGSGGGGS. Changes lie in the heavy chain CDRs alone.
VH: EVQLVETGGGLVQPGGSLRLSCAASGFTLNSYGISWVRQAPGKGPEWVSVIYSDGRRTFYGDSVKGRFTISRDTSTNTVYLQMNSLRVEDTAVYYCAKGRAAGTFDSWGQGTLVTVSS
VL: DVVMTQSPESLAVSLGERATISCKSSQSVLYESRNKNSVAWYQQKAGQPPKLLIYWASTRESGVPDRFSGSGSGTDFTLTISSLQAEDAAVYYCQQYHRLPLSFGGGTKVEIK

Sequences are complete VH domains. Affinities are written as log10 Kd with Kd in nM; a lower number is a better binder. A mean of the replicates is given; it leaves out those without a signal. "n.d." marks a missing value. The strain was present, yet no cells mated with the target were sequenced in that replicate, which points to weak or no binding. The range of this assay differs from that of the first round, and the authors advise against merging the two. Of ten entries with the parent sequence, four were seen in most replicates (averages 0.34 to 2.37), three in one and three in none, so single entries are noisy. The authors' rule: three or more of the six replicates give a measured affinity, fewer mean a poor binder. Nonspecific signal, from three strains lacking the peptide, appeared in 1% of pairings of all heavy chain designs, centred on 2.08 (5% of these signals below 0.84); values are not corrected for it. Also given: how often the same scFv was detected with the empty control strains, with their mean in brackets.

| # | VH | log10 Kd, replicates | log10 Kd (nM), mean | control signals |
|---|---|---|---|---|
| 1 | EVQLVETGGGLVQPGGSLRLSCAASSFTLNSYGISWVRQAPGKGPEWVSVIYADGRRTFYGDSVKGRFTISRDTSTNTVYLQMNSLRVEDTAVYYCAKGQAAGTFDSWGQGTLVTVSS | 0.73 / 0.68 / 0.20 / 0.58 / 0.42 / 0.55 | 0.53 | 0 of 18 |
| 2 | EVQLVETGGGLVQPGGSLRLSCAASGFQLNDYGISWVRQAPGKGPEWVSVIYSDGRRTFYGDSVKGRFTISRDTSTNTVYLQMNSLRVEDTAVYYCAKGRTAGTFDTWGQGTLVTVSS | 1.76 / 0.51 / 0.42 / 1.28 / 0.68 / 1.54 | 1.03 | 0 of 18 |
| 3 | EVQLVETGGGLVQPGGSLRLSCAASGFSLNDYGISWVRQAPGKGPEWVSVIYSDGRRTFYGDSVKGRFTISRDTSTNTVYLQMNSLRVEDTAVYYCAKGRCAGTFDSWGQGTLVTVSS | -0.69 / -0.97 / -1.23 / -0.96 / -0.84 / -0.62 | -0.89 | 0 of 18 |
| 4 | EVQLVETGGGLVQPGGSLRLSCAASGFSLNSYGISWVRQAPGKGPEWVSVIYSDGRRTFYADTVKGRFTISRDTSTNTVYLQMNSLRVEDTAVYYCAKGRTAGTFDSWGQGTLVTVSS | -0.04 / 1.15 / -0.58 / -0.43 / -0.49 / 0.52 | 0.02 | 0 of 18 |
| 5 | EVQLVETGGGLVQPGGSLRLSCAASGFYLNEYGISWVRQAPGKGPEWVSVIYSDGRRTFYGDSVKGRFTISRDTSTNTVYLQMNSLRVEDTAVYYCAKGRHAGTFDSWGQGTLVTVSS | 1.47 / 1.01 / 0.92 / 1.66 / 0.89 / 1.89 | 1.31 | 0 of 18 |
| 6 | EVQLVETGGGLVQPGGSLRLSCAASGFSLNSYGISWVRQAPGKGPEWVSVIYSDGRRTFYVDSVKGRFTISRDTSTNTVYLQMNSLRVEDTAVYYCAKGRQAGTFDSWGQGTLVTVSS | -0.09 / 0.30 / 0.72 / 1.05 / 0.50 / 0.63 | 0.52 | 0 of 18 |
| 7 | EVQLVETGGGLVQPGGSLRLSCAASGFSLNEYGISWVRQAPGKGPEWVSVIYSDGRRTFYGDSVKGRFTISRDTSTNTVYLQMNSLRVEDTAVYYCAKGRAAGTFDLWGQGTLVTVSS | 0.19 / -0.09 / 0.04 / -0.11 / -0.05 / -0.12 | -0.02 | 0 of 18 |
| 8 | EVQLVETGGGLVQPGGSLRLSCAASGFSLNSYGISWVRQAPGKGPEWVSVIYSDGRRTFYADSVKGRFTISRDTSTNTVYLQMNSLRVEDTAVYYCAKGTAAGTFDKWGQGTLVTVSS | n.d. / n.d. / n.d. / n.d. / 1.96 / 0.88 | 1.42 | 0 of 18 |
| 9 | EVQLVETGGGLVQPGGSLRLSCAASGFSLNSYGISWVRQAPGKGPEWVSVIYSDGRRTFYSDSVKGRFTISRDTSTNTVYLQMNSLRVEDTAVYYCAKGQAAGTFDKWGQGTLVTVSS | 0.25 / 1.07 / 0.11 / 0.17 / 0.40 / 0.42 | 0.40 | 1 of 18 (2.33) |
| 10 | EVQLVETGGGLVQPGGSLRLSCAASGFSLNSYGISWVRQAPGKGPEWVSVIYSDGRRTFYADTVKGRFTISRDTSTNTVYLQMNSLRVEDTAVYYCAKGQTAGTFDSWGQGTLVTVSS | 0.68 / 0.41 / 0.60 / 0.48 / 0.53 / 0.78 | 0.58 | 0 of 18 |
| 11 | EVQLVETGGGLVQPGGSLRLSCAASGFGLNSYGISWVRQAPGKGPEWVSVIYSDGRRTFYADSVKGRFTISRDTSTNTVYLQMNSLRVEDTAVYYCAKGHAAGTFDSWGQGTLVTVSS | 1.26 / 0.50 / 0.99 / 0.05 / -0.01 / 0.79 | 0.60 | 1 of 18 (2.01) |
| 12 | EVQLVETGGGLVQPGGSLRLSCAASGFVLNSYGISWVRQAPGKGPEWVSVIYSDGRRTFYADSVKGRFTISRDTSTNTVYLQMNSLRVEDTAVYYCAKGQEAGTFDSWGQGTLVTVSS | 0.59 / 0.27 / 0.09 / -0.07 / -0.28 / 0.46 | 0.18 | 0 of 18 |
| 13 | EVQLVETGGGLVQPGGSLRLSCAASGFTLNEYGISWVRQAPGKGPEWVSVIYSDGRRTFYGDSVKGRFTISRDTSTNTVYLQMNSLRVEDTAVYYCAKGRCAGTFDSWGQGTLVTVSS | n.d. / n.d. / n.d. / n.d. / n.d. / n.d. | n.d. | 0 of 18 |
| 14 | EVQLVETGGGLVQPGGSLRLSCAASGFDLNEYGISWVRQAPGKGPEWVSVIYSDGRRTFYADSVKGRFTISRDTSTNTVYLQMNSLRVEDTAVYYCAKGRTAGTFDSWGQGTLVTVSS | -0.65 / -0.63 / -0.47 / -0.22 / -0.80 / -0.99 | -0.63 | 0 of 18 |
| 15 | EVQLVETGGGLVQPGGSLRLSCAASKFSLNSYGISWVRQAPGKGPEWVSVIYSDGRRTFYADSVKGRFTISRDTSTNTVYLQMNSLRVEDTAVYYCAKGRLAGTFDSWGQGTLVTVSS | 1.62 / 2.76 / n.d. / n.d. / 2.40 / 2.42 | 2.30 | 1 of 18 (2.89) |
| 16 | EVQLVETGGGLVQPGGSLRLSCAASGFDLNSYGISWVRQAPGKGPEWVSVIYSDGRRTFYGDSVKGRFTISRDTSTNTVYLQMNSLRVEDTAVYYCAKGKAAGTFDDWGQGTLVTVSS | 0.64 / 0.67 / 0.55 / 0.34 / 0.56 / 0.72 | 0.58 | 0 of 18 |
| 17 | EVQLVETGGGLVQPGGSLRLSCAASGFDLNSYGISWVRQAPGKGPEWVSVIYSDGRRTFYGDSVKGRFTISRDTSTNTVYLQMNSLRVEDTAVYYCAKGEAAGTFDQWGQGTLVTVSS | 0.82 / 1.43 / n.d. / 3.20 / n.d. / 0.43 | 1.47 | 0 of 18 |
| 18 | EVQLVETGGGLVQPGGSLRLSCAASGFSLNEYGISWVRQAPGKGPEWVSVIYSDGRRTFYHDSVKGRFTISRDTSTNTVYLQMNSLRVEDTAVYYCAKGRTAGTFDSWGQGTLVTVSS | 0.49 / -0.22 / -0.21 / -0.07 / -0.05 / 0.12 | 0.01 | 1 of 18 (1.03) |
| 19 | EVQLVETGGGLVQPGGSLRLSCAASGFTLNSYGISWVRQAPGKGPEWVSVIYADGRRTFYGDSVKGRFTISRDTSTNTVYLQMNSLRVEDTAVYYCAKGQAAGTFDVWGQGTLVTVSS | 0.19 / -0.05 / 0.05 / -0.08 / 0.10 / 0.05 | 0.04 | 2 of 18 (2.60) |